Measured values published in ChEMBL document CHEMBL1129525 (J Med Chem, 1996).

What was measured:
Dihydrofolate reductase = molecular target: T1, Dihydrofolate reductase (Pneumocystis carinii, UniProt P16184)
T1 sequence (P16184 whole entry): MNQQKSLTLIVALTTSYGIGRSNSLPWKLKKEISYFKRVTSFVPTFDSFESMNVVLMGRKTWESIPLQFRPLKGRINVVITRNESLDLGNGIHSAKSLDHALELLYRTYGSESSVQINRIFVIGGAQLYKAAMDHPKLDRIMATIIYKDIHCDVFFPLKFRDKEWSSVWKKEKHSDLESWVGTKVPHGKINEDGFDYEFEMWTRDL

[1] = molecular target: T2, Bifunctional dihydrofolate reductase-thymidylate synthase (Toxoplasma gondii, UniProt Q07422)
T2 sequence (Q07422 whole entry): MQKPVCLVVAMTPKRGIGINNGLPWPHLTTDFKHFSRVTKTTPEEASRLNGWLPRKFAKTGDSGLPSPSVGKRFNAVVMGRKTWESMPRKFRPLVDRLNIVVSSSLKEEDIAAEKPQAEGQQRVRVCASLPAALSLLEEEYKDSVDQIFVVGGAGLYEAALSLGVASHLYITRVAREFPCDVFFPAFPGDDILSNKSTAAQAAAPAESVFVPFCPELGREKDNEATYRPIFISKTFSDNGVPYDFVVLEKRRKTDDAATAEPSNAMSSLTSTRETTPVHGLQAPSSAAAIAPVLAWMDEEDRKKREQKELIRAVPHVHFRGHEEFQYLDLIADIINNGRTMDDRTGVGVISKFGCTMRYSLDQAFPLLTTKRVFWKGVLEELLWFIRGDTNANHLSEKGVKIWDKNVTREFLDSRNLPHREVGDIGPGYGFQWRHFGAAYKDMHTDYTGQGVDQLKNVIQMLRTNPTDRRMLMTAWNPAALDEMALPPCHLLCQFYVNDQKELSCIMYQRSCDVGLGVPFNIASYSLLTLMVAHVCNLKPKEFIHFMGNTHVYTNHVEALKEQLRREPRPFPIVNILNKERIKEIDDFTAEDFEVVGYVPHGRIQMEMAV

Structure (SMILES)	IC50 (Dihydrofolate reductase) [µM]	IC50 [1] [µM]
COc1cc(NCc2cnc3nc(N)nc(N)c3c2)cc(OC)c1OC	2	–
COc1cc(NCc2cnc3nc(N)nc(N)c3c2C)cc(OC)c1OC	–	0.0027
Nc1nc(N)c2nc(CCc3cccc4ccccc34)cnc2n1	97	–
Cc1ccc(SCc2cnc3nc(N)nc(N)c3n2)cc1	30	–
